# Patent EP1161438B1, “6-O-SUBSTITUTED MACROLIDES HAVING ANTIBACTERIAL ACTIVITY” (ABBOTT LABORATORIES, priority 1999, dated 2000)
# System: Streptococcus Pneumonia 5979
# Assay: Agar dilution antibacterial MIC assay
# Type: cell-based
# Settings: organism code ZZ, BHI agar, 35-37 °C, 20 to 24 hours, unit assumed
# Protocol: Representative compounds of the present invention were assayed in vitro for antibacterial activity as follows: Twelve petri dishes containing successive aqueous dilutions of the test compound mixed with 10 mL of sterilized Brain Heart Infusion (BHI) agar (Difco 0418-01-5) were prepared. Each plate was inoculated with 1:100 (or 1:10 for slow-growing strains, such as Micrococcus and Streptococcus) dilutions of up to 32 different microorganisms, using a Steers replicator block. The inoculated plates were incubated at 35-37 °C for 20 to 24 hours. In addition, a control plate, using BHI agar containing no test compound, was prepared and incubated at the beginning and end of each test.
# An additional plate containing a compound having known susceptibility patterns for the organisms being tested and belonging to the same antibiotic class as the test compound was also prepared and incubated as a further control, as well as to provide test-to-test comparability. Erythromycin A was used for this purpose.
# After incubation, each plate was visually inspected. The minimum inhibitory concentration (MIC) was defined as the lowest concentration of drug yielding no growth, a slight haze, or sparsely isolated colonies on the inoculum spot as compared to the growth control.
structure (smiles),measurement,value
"CC[C@H]1OC(=O)[C@H](C)[C@@H](O[C@H]2C[C@@](C)(OC)[C@@H](O)[C@H](C)O2)[C@H](C)[C@@H](O[C@@H]2O[C@H](C)C[C@H](N(C)C)[C@H]2O)[C@](C)(O)C[C@@H](C)C(=O)[C@H](C)[C@@H](O)[C@]1(C)O [Ery. A standard, Erythromycin A, reference compound]",MIC,> 128 µg/mL
